Experimental data reported in PubChem BioAssay AID1463 (National Center for Advancing Translational Sciences (NCATS), 2008).
The entries are a selection whose mix differs from that of the whole data set. Results filed as inconclusive are left out. The source made the active and inactive calls. Calls come from the whole dose curve; as a rule, active = well fitted curve in the direction sought with a large enough effect; inconclusive = small, poorly fitted or top-dose-only effect; inactive = flat fitted curve, though single readings scatter.
% is set by controls: 0 for no effect and ±100 for the full control effect.

Test: Counterscreen qHTS for Inhibitors of Tau Fibril Formation, Fluorescence Polarization; note: nearly all actives have a fitted effect of over 55% in size
Conditions: tau K18 P301L (four-repeat tau fragment) Alexa594 fluorescence, heparin fibrillization; at 57.7 µM (top of the series)
For `CCOC(=O)c1ccc(NP(C)(=O)Oc2ccccc2)cc1` (centres undefined), the activity change, negative = decrease was inactive: -4.49%.
In the case of `Cc1ccc(NP(C)(=O)Oc2ccccc2)c(C)c1` (centres undefined), the activity change, negative = decrease was inactive: -3.14%.
With `COc1ccccc1OP(C)(=O)Nc1ccc(C)cc1` (centres undefined) the activity change, negative = decrease was inactive: 2.08%.
With `COc1ccc(OP(C)(=O)Nc2cccc(F)c2)cc1` (centres undefined) the activity change, negative = decrease was inactive: -5.47%.
In the case of `COc1ccccc1OP(C)(=O)Nc1cc(Cl)ccc1C` (centres undefined), the activity change, negative = decrease was inactive: -11.4%.
In the case of `Cc1cc(C)cc(OP(C)(N)=O)c1` (centres undefined), the activity change, negative = decrease was inactive: -2.02%.
For `Cc1cccc(C)c1OP(C)(N)=O` (centres undefined), the activity change, negative = decrease was inactive: -2.19%.
For `CC(C)(C)c1ccc(OP(C)(=O)Nc2ccc(SC(F)(F)F)cc2)cc1` (centres undefined), the activity change, negative = decrease was inactive: -15.5%.
In the case of `O=[N+]([O-])c1ccc2c(c1)C=Nc1ccccc1O2`, the activity change, negative = decrease was inactive: -27.6%.
With `CCN(CC)CCCOC(=O)C(O)(c1ccccc1)c1ccccc1` the activity change, negative = decrease was inactive: 1.05%.
For `CCOP(C)(=S)SCC(=O)NC(C)C(=O)O` (centres undefined), the activity change, negative = decrease was inactive: -0.745%.
With `CCOC(=O)c1ccc(NP(C)(=O)Oc2ccc(OC)cc2)cc1` (centres undefined) the activity change, negative = decrease was inactive: -9.05%.
In the case of `CP(=O)(Nc1ccccn1)Oc1ccc(Cl)cc1` (centres undefined), the activity change, negative = decrease was inactive: 0.512%.
For `CP(=O)(Oc1ccccc1)OC(c1ccccc1)C(F)(F)F` (centres undefined), the activity change, negative = decrease was inactive: -3.2%.
With `Cc1cccc(C)c1OP(C)(=O)Nc1ccc(SC(F)(F)F)cc1` (centres undefined) the activity change, negative = decrease was inactive: -19.7%.
With `Cc1cc(C)cc(OP(C)(=O)Nc2ccc(SC(F)(F)F)cc2)c1` (centres undefined) the activity change, negative = decrease was inactive: -18.5%.
With `CP(=O)(NC(=O)Nc1ccccc1)Oc1ccccc1` (centres undefined) the activity change, negative = decrease was inactive: -4.91%.
With `CP(=S)(Nn1cnnc1)Oc1ccccc1` (centres undefined) the activity change, negative = decrease was inactive: -0.0504%.
With `COc1ccccc1OP(C)(=O)Nc1ccccc1` (centres undefined) the activity change, negative = decrease was inactive: -3.15%.
For `CP(=O)(Nc1ccccc1Br)Oc1ccccc1` (centres undefined), the activity change, negative = decrease was inactive: -4.72%.
In the case of `COc1ccccc1OP(C)(=O)Nc1c(C)cccc1C` (centres undefined), the activity change, negative = decrease was inactive: -2%.
In the case of `CN1CCCCC1COC(=O)C1(O)c2ccccc2CCc2ccccc21` (centres undefined), the activity change, negative = decrease was inactive: -0.445%.
In the case of `CP(=O)(Nc1ccc(SC(F)(F)F)cc1)Oc1ccccc1` (centres undefined), the activity change, negative = decrease was inactive: -14%.
In the case of `CCCOc1ccc(NP(C)(=O)Oc2ccc(Cl)cc2)cc1` (centres undefined), the activity change, negative = decrease was inactive: -7.03%.
For `O=[N+]([O-])c1cc([N+](=O)[O-])c(Nc2nnnn2CCO)c([N+](=O)[O-])c1`, the activity change, negative = decrease was inactive: -23.7%.
For `Cc1nc2ccc3ccccc3c2s1.O=[N+]([O-])c1cc([N+](=O)[O-])c(O)c([N+](=O)[O-])c1`, the activity change, negative = decrease was inactive: -10.1%.
For `O=[N+]([O-])c1cc([N+](=O)[O-])c(-n2nnc3ccccc32)c([N+](=O)[O-])c1`, the activity change, negative = decrease was inactive: 4.96%.
In the case of `CP(=O)(Nc1cccc(Br)c1)Oc1ccccc1` (centres undefined), the activity change, negative = decrease was inactive: -10.3%.
For `Cc1cc(C)cc(OP(C)(=O)Nc2ccccn2)c1` (centres undefined), the activity change, negative = decrease was inactive: -2.82%.
In the case of `Cc1ccc(C)c(NP(C)(=O)Oc2ccccc2)c1` (centres undefined), the activity change, negative = decrease was inactive: 7.3%.
With `COc1ccccc1OP(C)(=O)Nc1cccc(Br)c1` (centres undefined) the activity change, negative = decrease was inactive: 3.39%.
In the case of `Cc1cc(C)cc(OP(C)(=O)Nc2ccc(C)cc2C)c1` (centres undefined), the activity change, negative = decrease was inactive: -10.8%.
In the case of `CCOC(=O)c1ccc(NP(C)(=O)Oc2cc(C)cc(C)c2)cc1` (centres undefined), the activity change, negative = decrease was inactive: -14.9%.
For `O=[N+]([O-])OCC(CO[N+](=O)[O-])(CO[N+](=O)[O-])CO[N+](=O)[O-]`, the activity change, negative = decrease was inactive: -3.71%.
With `CC1=NCCc2c1[nH]c1ccccc21.O=[N+]([O-])c1cc([N+](=O)[O-])c(O)c([N+](=O)[O-])c1` the activity change, negative = decrease was inactive: -16.7%.
For `CCN(CC)CCCOC(=O)C(O)(c1ccccc1)C1CCCCC1` (centres undefined), the activity change, negative = decrease was inactive: 1.65%.
For `CCCCCOc1ccc(NP(C)(=O)Oc2ccc(Cl)cc2Cl)cc1` (centres undefined), the activity change, negative = decrease was inactive: -13.3%.
For `CP(=O)(Nc1ccccc1)Oc1ccc(F)cc1` (centres undefined), the activity change, negative = decrease was inactive: 7.17%.
With `COc1ccc(OP(C)(=O)Nc2ccc(SC(F)(F)F)cc2)cc1` (centres undefined) the activity change, negative = decrease was inactive: -8.2%.
In the case of `CCOC(=O)c1ccc(NP(C)(=O)Oc2ccc(F)cc2)cc1` (centres undefined), the activity change, negative = decrease was inactive: 6.98%.
For `O=C(OCCN1CCN(CCOCc2ccccc2)CC1)C(O)(c1ccccc1)c1ccccc1`, the activity change, negative = decrease was inactive: 8.51%.
With `CC(C)c1ccc(OP(C)(=O)Nc2ccc(SC(F)(F)F)cc2)cc1` (centres undefined) the activity change, negative = decrease was inactive: -13.5%.
In the case of `CP(=O)(Nc1ccccc1F)Oc1ccccc1` (centres undefined), the activity change, negative = decrease was inactive: -1.24%.
For `CP(=O)(Nc1ccc2c(c1)OCCO2)Oc1ccccc1` (centres undefined), the activity change, negative = decrease was inactive: -2.09%.
In the case of `CCN(CCCl)Cc1ccccc1C`, the activity change, negative = decrease was inactive: -5.1%.
In the case of `Cc1ccccc1NP(C)(=O)Nc1ccccc1C`, the activity change, negative = decrease was inactive: 1.4%.
For `CP(=O)(Nc1ccc(SC(F)(F)F)cc1)Oc1ccc(F)cc1` (centres undefined), the activity change, negative = decrease was inactive: -4.94%.
In the case of `CCOP(C)(=S)SCC(=O)NC(C)(CC)C(=O)O` (centres undefined), the activity change, negative = decrease was inactive: -9.86%.
In the case of `Cc1cc(-c2cccc3ccccc23)c(C)cn1.O=[N+]([O-])c1cc([N+](=O)[O-])c(O)c([N+](=O)[O-])c1`, the activity change, negative = decrease was inactive: -10.7%.
With `O=[N+]([O-])c1ccc(OP2(=O)COCCO2)cc1` (centres undefined) the activity change, negative = decrease was inactive: -11.9%.
In the case of `COc1ccc(OP(C)(=O)Nc2cccc(Br)c2)cc1` (centres undefined), the activity change, negative = decrease was inactive: -4.26%.
In the case of `COc1ccc(NP(C)(=O)Oc2ccccc2OC)cc1` (centres undefined), the activity change, negative = decrease was inactive: -5.29%.
For `CN(C)CCOC(=O)C(O)(c1ccccc1)C1CCCCC1` (centres undefined), the activity change, negative = decrease was inactive: -2.69%.
With `CP(=O)(OC12CC3CC(CC(C3)C1)C2)OC12CC3CC(CC(C3)C1)C2` the activity change, negative = decrease was inactive: -9.32%.
With `CCOC(=O)c1ccc(NP(C)(=O)Oc2ccc(Cl)cc2)cc1` (centres undefined) the activity change, negative = decrease was inactive: -16.1%.
For `CP(=O)(Nc1ccc(Cl)cc1)Oc1ccc(F)cc1` (centres undefined), the activity change, negative = decrease was inactive: -4.93%.
With `CC(C)(C)c1ccc(OP(C)(=O)O)cc1` the activity change, negative = decrease was inactive: -3.47%.
For `COc1ccccc1OP(C)(=O)Nc1ccccc1Br` (centres undefined), the activity change, negative = decrease was inactive: -9.32%.
For `CN(C)C(=O)c1c([N+](=O)[O-])cc([N+](=O)[O-])cc1[N+](=O)[O-]`, the activity change, negative = decrease was inactive: -16.9%.
For `COc1ccc(OP(C)(=O)Nc2ccc(Br)cc2)cc1` (centres undefined), the activity change, negative = decrease was inactive: -3.62%.
With `CCN(CC)CC(O)COC(=O)C(O)(c1ccccc1)C1CCCCC1` (centres undefined) the activity change, negative = decrease was inactive: -7.82%.
In the case of `CCc1ccc(OP(C)(=O)Nc2cccnc2)cc1` (centres undefined), the activity change, negative = decrease was inactive: 2.99%.
In the case of `CP(=O)(Oc1ccccc1)N1CCOC1=O` (centres undefined), the activity change, negative = decrease was inactive: -5.23%.
For `OCCSCCO`, the activity change, negative = decrease was inactive: 1.08%.
In the case of `O=C(OCCCN1CCCC1)C(O)(c1ccccc1)C1CCCCC1` (centres undefined), the activity change, negative = decrease was inactive: -4.56%.
In the case of `COc1ccccc1OP(C)(=O)Nc1c(C)n(C)n(-c2ccccc2)c1=O` (centres undefined), the activity change, negative = decrease was inactive: -1.41%.
In the case of `O=[N+]([O-])c1cc([N+](=O)[O-])c(Nc2ccccn2)c([N+](=O)[O-])c1`, the activity change, negative = decrease was inactive: -20.3%.
For `Cc1c(NP(C)(=O)Oc2ccc(C(C)C)cc2)c(=O)n(-c2ccccc2)n1C` (centres undefined), the activity change, negative = decrease was inactive: 0.831%.
In the case of `CCc1ccc(OP(C)(=O)O)cc1`, the activity change, negative = decrease was inactive: 1.89%.
For `COc1ccccc1OP(C)(=O)Nc1ccc(C)cc1C` (centres undefined), the activity change, negative = decrease was inactive: -5.51%.
With `CP(=O)(Nc1ccccn1)Oc1ccccc1` (centres undefined) the activity change, negative = decrease was inactive: 5.16%.
With `CN(C)CCOC(=O)C(O)(c1ccccc1)C1CCCC1` (centres undefined) the activity change, negative = decrease was inactive: -3.32%.
With `COc1ccc(OP(C)(=O)Nc2ccccn2)cc1` (centres undefined) the activity change, negative = decrease was inactive: -9.45%.
For `Cc1nc2ccc3ccccc3c2o1.O=[N+]([O-])c1cc([N+](=O)[O-])c(O)c([N+](=O)[O-])c1`, the activity change, negative = decrease was inactive: -24.6%.
For `CP(=O)(OCCOc1ccccc1)OCCOc1ccccc1`, the activity change, negative = decrease was inactive: 1.54%.
With `CP(=O)(Nc1ccc(Cl)cc1Cl)Oc1ccccc1` (centres undefined) the activity change, negative = decrease was inactive: 2.34%.
With `Cc1cc(C)cc(OP(C)(=O)Nc2cccc(C(F)(F)F)c2)c1` (centres undefined) the activity change, negative = decrease was inactive: -19.4%.
With `COc1ccc(OP(C)(=O)Nc2ccccc2Br)cc1` (centres undefined) the activity change, negative = decrease was inactive: -2.33%.
In the case of `COc1ccccc1OP(C)(=O)Nc1ccc(C)c(C)c1` (centres undefined), the activity change, negative = decrease was inactive: -0.909%.
